Assay results from patent publication US5453426A, “Sulfur-containing xanthine derivatives as adenosine antagonists” (priority 1994, dated 1995).

The chains behind the UniProt entries cited, without tags or fusion partners.
UniProt P25099, whole entry: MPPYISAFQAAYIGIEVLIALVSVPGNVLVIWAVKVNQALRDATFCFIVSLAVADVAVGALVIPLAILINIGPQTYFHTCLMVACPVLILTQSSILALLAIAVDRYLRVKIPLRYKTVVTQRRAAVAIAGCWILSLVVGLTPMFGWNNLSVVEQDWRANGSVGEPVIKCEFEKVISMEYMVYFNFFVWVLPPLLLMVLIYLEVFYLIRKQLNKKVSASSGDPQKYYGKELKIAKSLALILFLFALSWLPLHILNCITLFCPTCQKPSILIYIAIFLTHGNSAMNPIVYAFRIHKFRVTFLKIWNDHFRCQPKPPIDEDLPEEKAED

Target: T1, A1 adenosine receptors (Rattus norvegicus, UniProt P25099)
T1 construct: A1 adenosine receptors in rat cerebral cortical membranes; from tissue; host or cells: rat cerebral cortex membranes
Test: Inhibition of binding of [3H]N6-phenylisopropyladenosine to A1 adenosine receptors in rat cerebral cortical membranes
Settings: ratio of A2 (rat striatum) to A1 (rat cortex) Ki

CCCn1c(=O)c2[nH]c(-c3ccc(OCC(=O)N(C)CCN(C)C)cc3)nc2n(CCC)c1=S [Compound 37, (8-[2-Dimethylaminoethyl[N-methylamino[carbonyl[methyl[oxyphenyl]]]]]-2-thio-1,3-dipropylxanthine)]
Ki (A2)/Ki (A1): 9.5
